Patent publication US10351547B2, “Somatostatin modulators and uses thereof” (priority 2016, dated 2019)

Protein sequences, listed by entry. Tags and fused reporters are not part of them. Lines headed by an entry give the natural chain unless they say otherwise; changes in a name come on top.
UniProt P30874: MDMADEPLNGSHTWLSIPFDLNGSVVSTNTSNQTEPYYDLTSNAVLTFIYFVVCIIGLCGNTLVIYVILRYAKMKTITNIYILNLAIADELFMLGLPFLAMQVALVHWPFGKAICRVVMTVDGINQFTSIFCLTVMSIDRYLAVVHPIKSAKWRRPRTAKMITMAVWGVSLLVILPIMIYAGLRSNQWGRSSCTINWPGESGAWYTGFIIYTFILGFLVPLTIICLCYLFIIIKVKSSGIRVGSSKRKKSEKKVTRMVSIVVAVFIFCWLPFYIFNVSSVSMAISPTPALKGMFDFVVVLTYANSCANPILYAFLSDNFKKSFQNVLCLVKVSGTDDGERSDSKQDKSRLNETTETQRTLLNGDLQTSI

Biological target: human SSTR2 (Homo sapiens (Human), UniProt P30874)
Experiment: Human SSTR2 intracellular cAMP functional assay for agonists (HTRF)
Assay type: cell-based
Method: Functional Assay for SSTR2 Agonists
General overview: All five SSTR subtypes are Gi coupled G-protein coupled receptors (GPCRs) that lead to decreases in intracellular cyclic AMP (cAMP) when activated by an agonist. […] Human SSTR2 intracellular cAMP assay is described below. The human SSTR1, 3, 4 and 5 assays follow the same protocol of SSTR2.
The cells are cultured at 37° C., 5% CO2 and 95% humidity. […] The cells are incubated for 20 minutes at 37° C. […] The cells are treated with 50 μL of lysis buffer (HRTF cAMP kit, Cisbio). […] The time-resolved fluorescent signal is read with a Tecan M1000Pro multiplate reader. The intracellular cAMP concentrations are calculated by regression to a standard curve and are plotted vs. the concentration of the compounds of the invention and the EC50 of the compounds are calculated using standard methods. All data manipulations are in GraphPad Prism v6.

Compound	pEC50
N#Cc1cccc(-c2ccc3ncc(-c4cc(F)cc(F)c4)c(N4CC(C5COCCN5)C4)c3c2)c1O (centres unmarked) [2-271, 3-[3-(3,5-difluorophenyl)-4-[3-(morpholin-3-yl)azetidin-1-yl]quinolin-6-yl]-2-hydroxybenzonitrile]	7.00 to 8.00
Cc1cc(F)cc(-c2cnc3ccc(-c4cccc(C#N)c4O)cc3c2N2CC(C3COCCN3)C2)c1 (centres unmarked) [2-270, 3-[3-(3-fluoro-5-methylphenyl)-4-[3-(morpholin-3-yl)azetidin-1-yl]quinolin-6-yl]-2-hydroxybenzonitrile]	> 8.00

pEC50: −log10 of the molar value.
